Results reported in BindingDB's records for doi:10.1021/jm049538w (Glaxosmithkline, 2005).

Chains of the proteins cited; added tags and fusions are not shown.
UniProt P35968, whole entry: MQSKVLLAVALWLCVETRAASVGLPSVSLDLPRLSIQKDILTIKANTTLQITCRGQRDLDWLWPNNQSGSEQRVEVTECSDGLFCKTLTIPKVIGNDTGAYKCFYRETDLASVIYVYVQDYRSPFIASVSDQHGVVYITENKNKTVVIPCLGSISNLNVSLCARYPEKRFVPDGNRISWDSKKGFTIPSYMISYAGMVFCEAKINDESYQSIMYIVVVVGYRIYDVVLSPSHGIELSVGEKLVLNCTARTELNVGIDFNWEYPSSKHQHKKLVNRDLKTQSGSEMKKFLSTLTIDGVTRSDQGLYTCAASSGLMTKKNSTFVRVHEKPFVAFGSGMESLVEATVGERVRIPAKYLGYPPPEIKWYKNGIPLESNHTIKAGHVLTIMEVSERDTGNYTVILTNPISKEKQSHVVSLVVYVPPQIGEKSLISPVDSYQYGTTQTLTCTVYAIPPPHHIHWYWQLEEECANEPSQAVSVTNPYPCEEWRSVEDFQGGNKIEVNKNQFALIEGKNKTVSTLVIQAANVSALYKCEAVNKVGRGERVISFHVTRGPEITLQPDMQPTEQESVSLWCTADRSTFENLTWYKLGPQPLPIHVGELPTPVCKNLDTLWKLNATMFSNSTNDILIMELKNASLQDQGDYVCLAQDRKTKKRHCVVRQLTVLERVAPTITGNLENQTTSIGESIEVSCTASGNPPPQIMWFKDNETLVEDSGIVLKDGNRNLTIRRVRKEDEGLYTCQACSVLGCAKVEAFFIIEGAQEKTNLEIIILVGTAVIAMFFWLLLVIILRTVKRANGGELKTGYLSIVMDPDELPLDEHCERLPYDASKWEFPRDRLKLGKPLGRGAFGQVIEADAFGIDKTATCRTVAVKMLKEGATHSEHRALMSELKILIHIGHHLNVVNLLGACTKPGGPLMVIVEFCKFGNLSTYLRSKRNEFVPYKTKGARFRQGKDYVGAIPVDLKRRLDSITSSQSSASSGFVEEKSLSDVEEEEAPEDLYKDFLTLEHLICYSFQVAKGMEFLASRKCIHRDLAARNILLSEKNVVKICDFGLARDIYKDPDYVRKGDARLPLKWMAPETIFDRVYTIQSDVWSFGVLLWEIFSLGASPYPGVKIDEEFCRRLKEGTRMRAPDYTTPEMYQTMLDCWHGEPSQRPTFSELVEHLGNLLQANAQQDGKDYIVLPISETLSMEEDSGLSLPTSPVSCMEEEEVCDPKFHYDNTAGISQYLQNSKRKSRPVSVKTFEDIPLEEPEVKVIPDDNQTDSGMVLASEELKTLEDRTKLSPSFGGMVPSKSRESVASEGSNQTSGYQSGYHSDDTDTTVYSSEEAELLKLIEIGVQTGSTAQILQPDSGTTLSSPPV

Molecular target: Vascular endothelial growth factor receptor 2 (Homo sapiens, UniProt P35968)
Test: Homogeneous Time-resolved Fluorescence (HTRF) Assay
Excerpt: The assay was using baculovirus-expressed recombinant protein kinase purified as the intracellular domain fused by GST tag, interacting with biotinylated peptide substrate. HTRF is based on the proximity of europium cryptate (donor fluorophore)-labeled antiphosphotyrosine and streptavidin labeled with APC(allophycocyanin), which have been brought together by a binding reaction.

CCS(=O)(=O)c1ccc(OC)c(Nc2ncc(-c3cccc(OC)c3)o2)c1 [N-[5-(ethanesulfonyl)-2-methoxyphenyl]-5-(3-methoxyphenyl)-1,3-oxazol-2-amine]
IC50: 36 nM
